# Ab-14 heavy chain CDR variants: yeast mating affinities

Binding partner: SARS-CoV-2 spike HR2 peptide, sequence PDVDLGDISGINAS.

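The starting antibody came from a phage panning campaign against this peptide. These sequences belong to a second round, designed from the earlier measurements on random variants of the parent. Group labels follow the data file (Ctrl: baseline library sampled from a position-specific scoring matrix, with some repeated check sequences; Rand: our label for a block that the file lists under HC and that is probably the random mutants of the ten best first-round binders; GP: Gaussian process model; GPLM: also part of the Gaussian process libraries; HC: hill climbing; Gen: genetic algorithm; Gibbs: Gibbs sampling; a sequence that several methods proposed may carry one label only). The assay is AlphaSeq: two haploid yeast populations carry antibody and antigen on their surface. Pairs that bind mate more often; barcode pairs of the diploids are counted by sequencing. Scores were corrected for input abundance and mapped to Kd with protein pairs of known affinity run in the same pool. Mating was done six times.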

Parent scFv Ab-14: VH joined to VL by three GGGGS repeats. Changes lie in the heavy chain CDRs alone.
VH: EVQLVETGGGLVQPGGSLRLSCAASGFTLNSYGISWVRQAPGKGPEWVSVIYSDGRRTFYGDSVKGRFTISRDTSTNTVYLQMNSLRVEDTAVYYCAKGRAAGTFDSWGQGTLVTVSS
VL: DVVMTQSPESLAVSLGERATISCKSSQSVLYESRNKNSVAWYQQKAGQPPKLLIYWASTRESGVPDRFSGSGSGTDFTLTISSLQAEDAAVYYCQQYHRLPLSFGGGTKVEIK

The parent's heavy chain CDRs are GFTLNSYGIS, VIYSDGRRTFYGDSVK, GRAAGTFDS; each variant's own CDRs replace them letter for letter.
This list holds designs with at most six substitutions.
Scale: log10 of Kd in nM, estimated from mating counts; low values are strong binders.
"nd" marks a missing value. The strain was present, yet no cells mated with the target were sequenced in that replicate, which points to weak or no binding.
A sequence that the file lists under several names has all its replicates listed entry by entry, parted by semicolons.

* GFNLNTYGIS, VIYSDGRRTFYADSVK, GQAAGTFDS [GPLM_Gen]: 0.40, 0.54, 0.54, 0.42, 0.54, 0.98
* GFDLNSYGIS, VIYSDGRRTFYGDSVK, GKEAGTFDN [GP_Gen]: -0.02, -0.23, 0.57, -0.13, -0.31, -0.06
* GFDLNSYGIS, VIYSDGRRTFYSDSVK, GQAAGTFDD [GP_Gen]: 0.37, 0.19, 0.13, 1.15, 0.90, 0.14
* QFTLNSYGIS, VIYSDGRRTFYGDSVK, GQEAGTFDT [GP_Gibbs]: nd, 1.83, nd, 2.58, 2.36, 2.70
* GFVLNSYGIS, VIYSDGRRTFYADQVK, GRTAGTFDS [GP_Gibbs]: 1.24, 0.90, 0.94, 1.79, nd, 0.95
* GFTLNSYGIS, VIYSDGRRTFYGDSVK, GRAGVTFDQ [GPLM_HC]: nd, nd, nd, nd, nd, nd
* GFSLNEYGIS, VIYSDGRRTFYCDSVK, GLAAGTFDR [GP_HC]: 0.92, 1.76, 1.52, 1.52, 1.14, 1.66
* GFDLNSYGAS, VIYSDGRRTAYGDSVK, GRAAGWFNS [Rand]: nd, nd, nd, nd, 2.73, nd
* GFTLSDYGIS, VIYSDGRRTQYIDSVK, GRAAGEFDS [Rand]: nd, nd, nd, nd, nd, nd
* GYTLNQYGIS, VIYSDGRRTFYGDSVK, GRNAGTFDV [Ctrl]: nd, nd, nd, nd, nd, nd
* GFTLLSYGIS, VIYSDGSRTFYGDSVK, GRAAGTFES [Ctrl]: nd, nd, nd, nd, nd, nd
* GFTLNSYGIS, VIYSDGRRTFYSDSVK, GQAGGTFDS [GPLM_HC]: 1.31, 1.76, 1.54, 1.44, 1.72, 1.31
* GFTLNSYGIS, VIYSDGKRTFYGDSVK, GQVAGTFDL [GPLM_Gibbs]: 0.39, 0.58, -0.03, 0.14, 0.82, 0.09
* GFTLNQYGIS, VIYSDGRRTFSSDSVK, GRAAGHWDS [Rand]: nd, nd, nd, nd, nd, nd
* GFHLNSYGIS, VIYSDGRRTFYRDSVK, GQTAGTFDS [GP_Gibbs]: 1.27, 2.24, 0.94, 0.88, 0.98, 1.80
* GFDLNSYGIS, VIYSDGRRTFYTDSVK, GQLAGTFDS [GP_HC]: -0.10, -0.08, 0.05, -0.52, -0.53, -0.42
* GFDLNSYGIS, VIYSDGRRTFYGDMVK, GRTAGTFDS [GPLM_Gibbs]: 0.85, 0.64, 0.34, 0.25, 0.13, 0.17
* GFTLNNYGYS, VIYSDGRRTFYTDSVK, GRADGTFDS [Ctrl]: nd, nd, nd, nd, nd, nd
* GFTLNSYGIS, VIYSDGRRTFYADSVR, GSAAGTDDS [Ctrl]: nd, nd, nd, nd, nd, nd
* GFGLNSYGIS, VIYSDGRRTFYTDSVK, GNAAGTFDS [GP_Gen]: 1.90, 0.29, 0.09, 0.74, 0.19, 0.74
* WFTLNDYGIS, VIYSDGRRTAYIDSVK, GRAAGTFDS [GP_HC]: nd, nd, nd, nd, nd, nd
* GFTLNEYGIS, VIYSDGRRTFYGDSVK, GRAAGTFDD [Ctrl+GP_HC]: 1.67, 2.28, 1.58, 1.47, 1.48, 1.43; 1.61, 1.72, 1.72, 1.19, 1.06, 1.53
* GFTLNDYGIS, VIYSDGRRTFYSDSVK, GREAGTFDS [GPLM_Gen]: -0.28, -0.19, -0.54, -0.29, -0.27, -0.23
* GFTLNAYGIS, VIYSDGRRTFYGDSVK, GRTAGTFDS [GPLM_Gen]: nd, -0.11, 0.70, nd, nd, nd
* GFTLNEKGIS, VIYSDGLRTFYGDSVK, GRAAGTFSS [Ctrl]: nd, nd, nd, nd, nd, nd
* GFTLNEYGIS, VIYSDGRRTFYGDSVK, GRCAGTFDE [GP_HC]: nd, -0.10, nd, nd, -0.14, nd
* GFTLNEYGIS, VIYSDGRRTFVTDSVK, GRFAGTFDS [Rand]: 1.17, 0.36, 0.41, 0.06, 0.33, 1.15
* GFSLNSYGIS, VIYSDGKRTFYSDSVK, GRTAGTFDS [GPLM_Gibbs]: -0.22, -0.46, -0.34, -0.44, -0.35, -0.21
* KFSLNWYGIS, VIYSDGRRTFYGDSVK, GRTAGTFDS [GP_Gen]: nd, nd, nd, nd, nd, nd
* GFTLLSYGIS, VIYSDGRRTFYIDSVK, GRAAGTFDS [Ctrl]: nd, nd, nd, nd, nd, nd
* GFTLNSYGIS, VIASDGRRTQYGDNVK, GRAPGTFDS [Ctrl]: nd, nd, nd, nd, nd, nd
* GFTLNSYGIS, VIYSDGRRTFYGDSVR, GQAAGTFDS [Ctrl]: nd, nd, nd, nd, nd, nd
* GFTLNEYGIS, VIYSDGRRTFYGDSVK, GRFAGTFDG [GP_HC]: nd, nd, nd, nd, nd, nd
* GFTLNEYGIS, VIYSDGRRTFYSDAVK, GNAAGEFDS [Rand]: 1.68, 1.91, 1.32, 2.13, 1.64, 1.42
* GFTLNSYGIS, VIYADGRRTFYGDSVK, WRAAGTFDS [Ctrl]: nd, nd, nd, nd, nd, nd
* GFTLNSYGIS, VIYADGRRTFYGDSVK, GRVAGTFDS [Ctrl+GPLM_Gen]: -0.10, 0.74, -0.48, -0.32, 1.11, -0.16; 0.41, 0.45, 0.32, -0.20, 0.47, 0.56

The last 2 entries again:

CDR-H1	CDR-H2	CDR-H3	group	log10 Kd (nM) by replicate
GFTLNSYGIS	VIYADGRRTFYGDSVK	WRAAGTFDS	Ctrl	nd, nd, nd, nd, nd, nd
GFTLNSYGIS	VIYADGRRTFYGDSVK	GRVAGTFDS	Ctrl+GPLM_Gen	-0.10, 0.74, -0.48, -0.32, 1.11, -0.16; 0.41, 0.45, 0.32, -0.20, 0.47, 0.56

In the paper, a design with two or fewer of six values counts as a poor binder.
Values of this round are not directly comparable with the first-round values of the same sequences.
Nonspecific signal, from three strains lacking the peptide, appeared in 1% of pairings of all heavy chain designs, centred on 2.08 (5% of these signals below 0.84); values are not corrected for it.
Of ten entries with the parent sequence, four were seen in most replicates (averages 0.34 to 2.37), three in one and three in none, so single entries are noisy.

Reference: Li et al. 2023, doi:10.1038/s41467-023-39022-2. File: FLAb, binding data.